Values quoted from earlier work in publication PMC8438204, “Unraveling the Thermodynamics of Ultra-tight Binding of Intrinsically Disordered Proteins” (Frontiers in Molecular Biosciences, 2021).

Target: CcdB (Escherichia coli) (UniProt P62554)

For CcdA (from UniProt P62552), the Kd is listed as 4 pM.
